Data reported in BindingDB's records for PubMed 2885412 (Unwersity of Misscuri, 1987).
Values joined by “and” are separate entries in the source; they are usually repeats but may differ in a detail not shown here. Identical values can stand only once.

Target: T1, Alpha-1A adrenergic receptor (Rattus norvegicus, UniProt P43140)
T1 sequence (P43140 whole entry): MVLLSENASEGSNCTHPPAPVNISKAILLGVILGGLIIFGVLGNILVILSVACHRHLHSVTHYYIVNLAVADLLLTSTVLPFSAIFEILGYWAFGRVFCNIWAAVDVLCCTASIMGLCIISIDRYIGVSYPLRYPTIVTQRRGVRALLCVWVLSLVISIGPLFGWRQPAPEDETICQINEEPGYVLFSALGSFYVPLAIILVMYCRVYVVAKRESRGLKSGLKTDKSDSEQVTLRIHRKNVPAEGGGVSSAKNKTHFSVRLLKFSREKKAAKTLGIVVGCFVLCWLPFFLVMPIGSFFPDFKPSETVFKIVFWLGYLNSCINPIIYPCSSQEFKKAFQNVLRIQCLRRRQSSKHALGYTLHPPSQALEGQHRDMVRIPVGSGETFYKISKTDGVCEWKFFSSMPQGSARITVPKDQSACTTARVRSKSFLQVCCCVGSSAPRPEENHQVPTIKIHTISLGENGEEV

Question: How did the Ki turn out when `COC(=O)[C@@H]1[C@H]2C[C@H]3c4[nH]c5ccccc5c4CCN3C[C@@H]2CC[C@@H]1O` [yohimbic acid methyl ester] was run?
Answer: Its Ki is 64 nM and 36 nM.
